Patent US8476222B2, “Isolated peptides from Actinomadura namibiensis” (priority 2006, dated 2013)
In brackets after ≈: the same amount, converted by molar mass. Entries after “also recorded” stand apart in the source; their conditions may differ.

Legend:
[1] = system: CAR mouse model of inflammatory triggered pain; test: Carrageenan (CAR) induced hindpaw inflammation model, thermal hyperalgesia; assay type: in vivo; details: for percent benefit (|AUC1-6 hour| of paw withdrawal latency): C57B6 mice
Method: Labyrinthopeptin (III) was studied in the carrageenan (CAR) induced hindpaw inflammation model in mice in order to proof the activity on thermal hyperalgesia, a typical readout for inflammatory triggered pain.
Induction of hind paw inflammation: Under slight general Isofluran anesthesia, CAR 2% (Sigma, Deisenhofen, Germany) in 20 μl saline was injected into the plantar aspect of both hind paws in male C57B6 mice. Paw withdrawal latencies (PWL) were determined on exposure of the paws to a defined thermal stimulus using a commercially available apparatus (Plantar Test Ugo Basile Biological Research Apparatus, Comerio, Italy) fitted with a mini camera to ensure proper placement of the infrared heat below the hind paw of interest. Mice were kept in the test cages over the whole study period (6 hours).
Measurement of thermal hyperalgesia: The timer which measures the duration of reflecting infrared light by the hind paw is started by the investigator and stopped, if the animal is shaking the affected hind paw. A cut off was set at 16 seconds to prevent tissue damage. The study was performed before and over 6 hours after CAR injection. Paw withdrawal latencies in seconds were used as readout for further analysis.
As a vehicle for the intravenous application was the 1:1:18 (Ethanol:Solutol:phosphate buffered saline) vehicle chosen.
Paw withdrawal latencies (PWL) measurements have been used to calculate significant treatment effects, and for AUC calculations over a reference time period (6 hours) and subsequent % benefit calculations. For the statistical analysis the PWL values of both hindpaws were used in two ways: first, with a 2-way analysis of variance (ANOVA) based on the PWL values for specific times (within a period of 6 hours) and second with a 1-way ANOVA on non-transformed delta AUC values |AUC1-6 hour|.
Dunnett analysis and gave significant treatment effects for both dosages. The percent benefit of the treatment was evaluated using the |AUC1-6 hour| values of the vehicle group (0% benefit) and all |AUC1-6 hour| values before CAR was injected (theoretical baseline over 6 hours=maximum possible effect=100% effect). Compared to these margins the 1 mg/kg dosage group achieved 37 and the 10 mg/kg group 34% benefit.

[2] = system: Adenovirus (DNA), 5″; test: Antiviral activity in cell culture; assay type: cell-based, Adenovirus 5; details: host organism Hela cells
Method: (§1) Viruses can only multiply in living cells. The viral studies were therefore carried out in cell cultures. The viruses were selected either because of their importance as infectious agents or typical biochemical or morphological structures.
(§2) A dilution series of Labyrinthopeptin (III) was prepared in 96-well microtiter plates. Hela or Vero cells, according to the infecting virus, are added to give a confluent monolayer within 24 h of incubation. After incubation for 3 hours, the respective virus is added to the cells in a concentration which is expected to completely destroy the cell monolayer within 2 days. The cultures are incubated at 37° C. in a gassed incubator (5% CO2 in air). After 24 hours the maximal tolerated dose of test compound (MTD) in the cell culture is evaluated by microscopic examination. The results were compared with non-infected tissue control and a corresponding infection control: […]

[3] = system: SNI mouse model of neuropathic pain; test: Spared nerve injury (SNI) mouse model of neuropathic pain, tactile allodynia (von Frey); assay type: in vivo
Text: Labyrinthopeptin (III) was studied in the spared nerve injury (SNI) mouse model of neuropathic pain in order to proof the activity on tactile allodynia. Under general anesthesia, the two major branches of the sciatic nerve in adult male C57B6 mice (22.7 g±0.26SEM) have been ligated and transected, with the sural nerve left intact. Tactile allodynia has been determined with the automatic von Frey test: using a dump needle stick, the plantar skin of hind paws was exposed to a pressure stimulus of increasing intensity up to 5 g. The force in grams at which the animal responded with hindpaw withdrawal was used as a read-out for tactile allodynia. The study was performed 7 days after nerve lesion over 6 hours with an additional measurement after 24 hours. Within two days after nerve transection, tactile allodynia developed completely and remained stable over at least two weeks. The compound was administered intravenous as a single application (3 mg/kg). As a vehicle for the intravenous application was the 1:1:18 (Ethanol:Solutol:phosphate buffered saline) vehicle chosen.
Paw withdrawal threshold (PWT) measurements have been used to calculate significant treatment effects, and for AUC calculations over a reference time period (6 hours) and subsequent % benefit calculations.
Dunnett analysis and gave significant treatment effects for both compounds. The percent benefit of the treatment was evaluated using the |AUC1-6 hour| values of the ipsilateral vehicle group (0% benefit) and all |AUC1-6 hour| values of the contralateral sides of all three groups (100% benefit=maximal possible effect). Compared to these margins Labyrinthopeptin (III) achieved 97% benefit.

[4] = system: Streptococcus pyogenes 77 A; test: Antibacterial activity, agar dilution MIC; assay type: cell-based; details: Müller-Hinton agar, 37° C., 17 hours, aerobic
Method: (§3) After culturing the organisms in liquid beef extract broth, the suspensions of bacteria were adjusted to a defined density by dilution with fresh culture medium (5·10^5 organisms/ml).
(§4) Labyrinthopeptin (III) was dissolved and diluted with water in a geometric dilution series (factor 2). 1.5 ml of the solution in the individual dilution steps were mixed with 13.5 ml liquid agar (Müller-Hinton agar) at approximately 45° C.
(§5) The maximum compound concentration in the petri dish was usually 100 mg/l. An agar plate with no compound served as a control.
(§6) After the culture medium had cooled and solidified, the agar plates were inoculated simultaneously with 20 different bacterial strains using a Multipoint Inoculator delivering 5·10^4 colony forming units (cfu) per inoculation spot and then incubated at 37° C. for 17 hours under aerobic conditions.
(§7) After incubation, the plates were examined macroscopically for the lowest compound concentration at which bacterial growth is no longer visible. A single colony or a haze growth at the inoculation spot was disregarded.
(§8) The antibacterial effect was assessed as the Minimum Inhibitory Concentration of the test compound (MIC: lowest compound concentration at which bacterial growth is no longer macroscopically visible): […]

[5] = system: Staphylococcus aureus SG 511; test: Antibacterial activity, agar dilution MIC; assay type: cell-based; details: Müller-Hinton agar, 37° C., 17 hours, aerobic
Method: as §3, §4, §5, §6, §7, §8

[6] = system: Streptococcus pyogenes 308 A; test: Antibacterial activity, agar dilution MIC; assay type: cell-based; details: Müller-Hinton agar, 37° C., 17 hours, aerobic
Method: as §3, §4, §5, §6, §7, §8

[7] = system: Staphylococcus aureus 285; test: Antibacterial activity, agar dilution MIC; assay type: cell-based; details: Müller-Hinton agar, 37° C., 17 hours, aerobic
Method: as §3, §4, §5, §6, §7, §8

[8] = system: Staphylococcus aureus 503; test: Antibacterial activity, agar dilution MIC; assay type: cell-based; details: Müller-Hinton agar, 37° C., 17 hours, aerobic
Method: as §3, §4, §5, §6, §7, §8

[9] = system: Streptococcus faecium D; test: Antibacterial activity, agar dilution MIC; assay type: cell-based; details: Müller-Hinton agar, 37° C., 17 hours, aerobic
Method: as §3, §4, §5, §6, §7, §8

[10] = system: Herpes (DNA), Simples 1; test: Antiviral activity in cell culture; assay type: cell-based, Herpes Simples 1; details: host organism Hela cells
Method: as §1, §2

With `CC(C)C[C@@H]1NC(=O)[C@]23CSC[C@H](NC(=O)[C@H](C)NC(=O)[C@H](Cc4ccccc4)NC1=O)C(=O)N[C@H](C(=O)O)CSSC[C@H](NC(=O)[C@@H]1CSC[C@]4(C[C@H](N)C(=O)N[C@@H](CC(=O)O)C(=O)N[C@@H](Cc5c[nH]c6ccccc56)C(=O)N4)C(=O)N[C@@H](CC(C)C)C(=O)N[C@@H](Cc4c[nH]c5ccccc45)C(=O)N[C@@H](CCC(=O)O)C(=O)N1)C(=O)N[C@@H](C2)C(=O)N[C@@H]([C@@H](C)O)C(=O)NCC(=O)N3` [Labyrinthopeptin (III)] the “percent benefit (|AUC1-6 hour| of paw withdrawal latency)” value ([1]; 1 mg/kg intravenous) was 37 % benefit, the “percent benefit (|AUC1-6 hour| of paw withdrawal latency)” value ([1]; 10 mg/kg intravenous) was 34 % benefit and the “effect on thermal hyperalgesia (conclusion)” value ([1]; intravenous, CAR mouse model) was “significantly reduced thermal hyperalgesia”. The “paw withdrawal latency (PWL) versus vehicle group over time” value ([1]; intravenous, both dosages (1 and 10 mg/kg), 2-way ANOVA, Dunnett's test) was “highly significant differences from the vehicle group from 1 to 2 hours after intravenous application; also recorded: The effect was gone 4 hours after application”, the Inhibition [2] was 133.33 mg/L and the “percent benefit (|AUC1-6 hour| of paw withdrawal threshold)” value ([3]; 3 mg/kg intravenous single application, C57B6 mice, 7 days after nerve lesion) was 97 % benefit. For the same molecule, the “paw withdrawal threshold (PWT) versus vehicle group over time” value ([3]; 3 mg/kg intravenous, 2-way ANOVA, Dunnett's test) was “highly significant differences from the vehicle group from 1 to 6 hours after intravenous application; also recorded: The effect was gone 24 hours after application”, the “effect on tactile allodynia (conclusion)” value ([3]; 3 mg/kg intravenous, SNI mouse model) was “significantly reduces tactile allodynia” and the “stability on exposure to air” value was “oxidized upon exposure to air to the respective sulfoxides”. It also gave an MIC [4] of 3.13 µg/mL (≈ 1.63 µM), an MIC [5] of 12.5 µg/mL (≈ 6.5 µM) and an MIC [6] of 3.13 µg/mL (≈ 1.63 µM). The MIC [7] was 12.5 µg/mL (≈ 6.5 µM), the MIC [8] was 3.13 µg/mL (≈ 1.63 µM) and the MIC [9] was 6.25 µg/mL (≈ 3.25 µM). The Inhibition [10] was 133.33 mg/L.
